This note sets out measurements from ChEMBL document CHEMBL1128497, “Synthesis and in vitro and in vivo antitumor activity of a series of trans platinum antitumor complexes” (J Med Chem, 1995).

The nature of data set [1]: In vivo antitumor activity by i.p. administration against murine ADJ/PC6 (sc) plasmacytoma. Conditions: mouse, ip. In kind it is ADME, organism-based. A digest of the protocol:
(§1)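 Murine solid ADJ/PC6 plasmacytoma (line 1: its subline selected for acquired cisplatin resistance), 1 mm3 fragments implanted sc. On day 20, single ip injection at halving doses as sonicated suspension in arachis oil. Tumours dissected and weighed 10 days later, treated vs control. ED90 = dose reducing tumour mass by 90%; therapeutic index = MTD/ED90; LD50 also reported.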

The next data set has as its system Mus musculus. The experiment in a line: In Vivo Antitumor activity against the acquired cisplatin-resistant ADJ/PC6 Plasmacytoma (ADJ/PC6cisR) in mice. In kind it is ADME, organism-based. A digest of the protocol:
as §1

The nature of data set [2]: Therapeutic index is the ratio of LD50 and ED90 at which in vivo antitumor activity against murine AD/PC6 sc plasmacytoma is observed. Conditions: mouse. In kind it is organism-based, Plasma.
Data set [3] can be described thus: Therapeutic index is the ratio of LD50 and ED90 at which in vivo antitumor activity against acquired cisplatin resistant ADJ/PC6 plasmacytoma is observed. In kind it is ADME, organism-based, Plasma.

“And” between values parts separate entries of the source, which are not always exact repeats. Identical values can stand only once.

One may read the LD50 as the dose at which mortality reaches 50%. In data set [1], “trans-Amminetetrachloro(cyclohexylamine)-platinium (IV)” displayed an LD50 of 14.5 mg/kg.

For the substance “trans-Amminetetrachloro(quinuclidine)-platinium (IV)”, the LD50 in data set [1] turned out to be 17.5 mg/kg. The LD50 values of the last two substances are within 1.5-fold of each other. The same measure, in the same setting: the figure for “trans-a,f-Dichloro-b,d-bis(cyclohexylamine)-c,e-dihydroxo-platinium (IV)” is greater than 100 mg/kg; for “trans-a-Ammine-b,d-dichloro-c,e-dihydrooxy-f-(ethylamine)-platinium (IV)” it is 50 mg/kg. In turn, “trans-a-Ammine-b,d-dichloro-c,e-dihydroxo-f-(quinuclidine)-platinium (IV)” gave an LD50 in data set [1] of 7.4 mg/kg.

Regarding “trans-a-Ammine-b,d-dichloro-c,e-dihydroxy-f-(diethylamine)-platinium (IV)”, the LD50 in data set [1] turned out to be 35 mg/kg. Against the preceding substance, the LD50 is about 4.7-fold higher. Still for that read-out and setting: in the case of “trans-a-ammine-b,d-dichloro-f-(cyclohexylamine)-c,e-bis-(ethylcarbamato)platinium (IV)” it was 465 mg/kg.

Regarding “trans-a-ammine-b,d-dichloro-f-(cyclohexylamine)-c,e-dihydroxoplatinium (IV)”, the LD50 with Mus musculus is 8.8 mg/kg; in data set [1] it was 8.8 mg/kg and 10.5 mg/kg and 17.5 mg/kg. For the same substance, the results for the Therapeutic index in data set [2] and in data set [3] were 11.6 and 1.9, respectively.
